# Literature values as cited in patent US7037910B2, “Azabicyclic heterocycles as cannabinoid receptor modulators” (Bristol-Myers Squibb, priority 2003, dated 2006).
# Conditions: chronic administration for two weeks
smiles,measurement,value
Cc1c(C(=O)NN2CCCCC2)nn(-c2ccc(Cl)cc2Cl)c1-c1ccc(I)cc1 [AM-251],adipose tissue mass,decreased adipose tissue mass
